Measured values reported in the Kinase Knowledgebase extract (Sharma et al. 2016).

Amino acid sequences for entries named in this document (tags omitted).
UniProt P00533, whole entry, looked up: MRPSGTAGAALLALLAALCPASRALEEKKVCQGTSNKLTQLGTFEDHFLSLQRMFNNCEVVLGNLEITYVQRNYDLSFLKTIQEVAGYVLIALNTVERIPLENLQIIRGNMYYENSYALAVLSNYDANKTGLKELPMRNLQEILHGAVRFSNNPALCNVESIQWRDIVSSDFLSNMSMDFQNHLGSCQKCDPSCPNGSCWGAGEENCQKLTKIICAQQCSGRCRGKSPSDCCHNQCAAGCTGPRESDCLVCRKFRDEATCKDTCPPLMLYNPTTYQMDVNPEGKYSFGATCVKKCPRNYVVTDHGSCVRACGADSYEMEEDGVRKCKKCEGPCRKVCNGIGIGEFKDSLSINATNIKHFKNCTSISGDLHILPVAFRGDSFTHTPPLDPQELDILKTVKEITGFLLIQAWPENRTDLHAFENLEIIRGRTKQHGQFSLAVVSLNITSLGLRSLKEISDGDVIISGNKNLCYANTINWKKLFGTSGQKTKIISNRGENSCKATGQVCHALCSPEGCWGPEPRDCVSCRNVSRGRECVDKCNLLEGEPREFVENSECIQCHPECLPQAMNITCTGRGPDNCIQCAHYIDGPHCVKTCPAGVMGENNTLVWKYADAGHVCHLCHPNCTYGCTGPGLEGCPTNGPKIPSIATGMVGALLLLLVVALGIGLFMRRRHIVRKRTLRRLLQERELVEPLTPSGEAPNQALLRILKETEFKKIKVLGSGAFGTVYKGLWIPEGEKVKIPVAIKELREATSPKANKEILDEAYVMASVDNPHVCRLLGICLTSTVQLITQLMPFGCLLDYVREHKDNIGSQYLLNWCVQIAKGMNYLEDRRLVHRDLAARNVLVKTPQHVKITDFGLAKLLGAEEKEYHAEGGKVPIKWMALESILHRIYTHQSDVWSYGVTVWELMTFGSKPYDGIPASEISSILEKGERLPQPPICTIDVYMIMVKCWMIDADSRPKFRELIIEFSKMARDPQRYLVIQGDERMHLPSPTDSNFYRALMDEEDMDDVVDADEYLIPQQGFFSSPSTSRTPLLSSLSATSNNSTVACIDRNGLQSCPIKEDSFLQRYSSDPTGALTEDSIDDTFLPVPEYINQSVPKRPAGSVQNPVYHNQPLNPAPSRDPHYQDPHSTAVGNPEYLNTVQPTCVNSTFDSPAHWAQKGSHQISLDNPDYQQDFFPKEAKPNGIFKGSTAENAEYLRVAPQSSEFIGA

Molecular target: EGFR (UniProt P00533)

IC50: ≤ 0.5 µM
Structure (SMILES): COc1cc2ncnc(Nc3cc(OC)c(OC)c(OC)c3)c2cc1OC
